The source of these data is patent US7862824B2, “Enhancement of GLP-2 activity of suppressing appetite” (1149336 Ontario, Inc., priority 2001, dated 2011).

The target in this test is T1, rat GLP-1 receptor (Rattus norvegicus, UniProt P32301).
T1 construct: expressed in transfected cells; host or cells: BHK (baby hamster kidney fibroblast) cells, stably transfected
T1 sequence (P32301 22-463): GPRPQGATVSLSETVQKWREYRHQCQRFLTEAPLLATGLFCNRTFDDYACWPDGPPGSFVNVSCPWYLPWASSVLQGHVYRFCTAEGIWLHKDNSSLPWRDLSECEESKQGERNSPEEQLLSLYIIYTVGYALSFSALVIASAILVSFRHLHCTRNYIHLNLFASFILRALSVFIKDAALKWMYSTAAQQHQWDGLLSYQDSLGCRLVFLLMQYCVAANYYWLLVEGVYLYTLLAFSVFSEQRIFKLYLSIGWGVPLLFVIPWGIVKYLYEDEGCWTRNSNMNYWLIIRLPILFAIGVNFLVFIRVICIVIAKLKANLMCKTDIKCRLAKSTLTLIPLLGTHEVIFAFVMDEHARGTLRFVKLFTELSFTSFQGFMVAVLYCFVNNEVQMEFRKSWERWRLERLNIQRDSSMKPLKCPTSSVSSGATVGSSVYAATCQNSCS
In words: cAMP accumulation in BHK cells stably expressing the rat GLP-1 receptor (RIA). It counts as cell-based. Particulars: BHK-GLP-1R cells. (Cyclic AMP is a second messenger, typically raised through Gs and lowered through Gi signalling.)

As to Rat GLP-1 (7-36)NH2, the EC50 by setting is: (agonist alone) 0.041 nM; (in the presence of 500 nM Exendin (9-39)) 0.57 nM; (in the presence of 1000 nM Exendin (9-39)) 4.28 nM.

The term EC50 denotes the concentration that produces a half-maximal response.
